Assay results from publication PMC11143095, “Chemically engineered essential oils prepared through thiocyanation under solvent-free conditions: chemical and bioactivity alteration” (Natural Products and Bioprospecting, 2024).

Sequences of proteins named here, by UniProt entry; tags and fusion partners are left off. Residues count along the entry.
UniProt O42275, 24-633: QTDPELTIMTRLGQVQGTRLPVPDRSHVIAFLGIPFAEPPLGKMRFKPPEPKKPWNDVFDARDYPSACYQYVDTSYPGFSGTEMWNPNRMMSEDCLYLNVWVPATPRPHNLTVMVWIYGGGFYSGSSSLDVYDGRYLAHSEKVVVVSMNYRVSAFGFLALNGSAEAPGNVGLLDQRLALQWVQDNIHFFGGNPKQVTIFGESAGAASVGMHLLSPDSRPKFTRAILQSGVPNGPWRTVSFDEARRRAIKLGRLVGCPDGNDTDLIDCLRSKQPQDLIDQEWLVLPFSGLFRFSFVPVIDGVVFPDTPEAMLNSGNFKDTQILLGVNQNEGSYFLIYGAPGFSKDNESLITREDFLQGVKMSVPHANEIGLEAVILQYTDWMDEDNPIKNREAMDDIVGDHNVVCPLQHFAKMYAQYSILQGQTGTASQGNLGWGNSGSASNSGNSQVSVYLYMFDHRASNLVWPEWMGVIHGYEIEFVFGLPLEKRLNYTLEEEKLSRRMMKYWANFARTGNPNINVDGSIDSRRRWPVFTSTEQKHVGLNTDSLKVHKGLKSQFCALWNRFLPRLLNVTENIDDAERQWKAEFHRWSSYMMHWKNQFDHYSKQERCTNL

Target: T1, AChE from Electrophorus electricus (Electrophorus electricus, UniProt O42275)
T1 construct: purchased Sigma-Aldrich (St. Louis, MO, USA)
Assay type: biochemical
Details: Ellman's reagent, microplate, 37 °C, pH 7.5; read-out: half maximal inhibitory concentration (IC50) against AChE
Description: Microplate assays utilizing Ellman’s reagent were performed to quantitatively assess the inhibitory activity of the isolated compounds against AChE [67].
Ammonium thiocyanate, sodium thiosulfate pentahydrate, anhydrous sodium sulfate and iodine were purchased from Cicarelli Laboratorios (San Lorenzo, Santa Fe). AChE from Electrophorus electricus EC 3.1.1.7, Fast blue salt B (FBB), α-naphthol, α-naphthyl acetate (α-NAc), and CDCl3, were purchased from Sigma-Aldrich (St. Louis, MO, USA). Acetonitrile (LCMS grade) was acquired from Carlo Erba Reagents (Val de Reuil, France) and formic acid from Merck. Aluminium TLC sheets coated with Silica gel 60 F were purchased from Merck (Darmstadt, Germany). Agar was purchased from Britania (Bs. As., Argentina).
Inhibition percentage determinations were carried out using the method applied by Osella et al.. […] The plate was shaken for 2 s and the increase in absorbance at 405 nm was monitored at 37 °C for 15 min. […] IC50 calculated using Prism V5.01 (GraphPad Software Inc., La Jolla, CA, USA) applying a non linear regression curve fit for a log[inhibitor] vs. normalized answer model with variable slope.

## CNC(=O)Oc1ccc2c(c1)[C@]1(C)CCN(C)[C@@H]1N2C [eserine, reference compound]
  IC50: 224 ± 17 nM
